Consider one molecule from PMC2963127, “Genotoxicity Revaluation of Three Commercial Nitroheterocyclic Drugs: Nifurtimox, Benznidazole, and Metronidazole” (Journal of Parasitology Research, 2009).

The subject of the data set is human leukocytes. Briefly: Alkaline comet assay. The conditions noted are these: 37°C, 1 hour.

Regarding `O=C(Cn1ccnc1[N+](=O)[O-])NCc1ccccc1` [BNZ, N-benzyl-2-(2-nitroimidazol-1-yl)acetamide], the “Specific genotoxic activity, DNA migration/dose unit (I: alkaline comet assay)” value is listed as 0.3357 (r ^2 = 0.941) μm/μM.
